According to PubChem BioAssay AID588405 (Sanford-Burnham Center for Chemical Genomics, 2011):
This is a selection; strong and weak results do not stand in their true shares. Some of these compounds have results that are not shown, active ones among them. The source made the active and inactive calls.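 How the source made its calls: active means inhibition of at least 50% at 20 µM; inactive means the rest.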

assay: Peg3 promoter-driven luciferase inhibitors, primary screen, cell-based, HeLa, luciferase luminescence (AID 588405); conditions: HeLa PEG-Prom luciferase reporter, overnight, at 20 µM, active compounds read high

SMILES | inhibition
COc1cccc(C(=O)NCC2(N3CCCCC3)CCCCC2)c1 | inactive: 0.53%
COc1ccc(Cl)cc1C(=O)NCC1(N(C)C)CCCCC1 | inactive: 5.81%
O=C(NCC1(N2CCCCC2)CCCCC1)c1cccc(Cl)c1 | inactive: 6.83%
CN(C)C1(CNC(=O)c2ccc(Br)cc2)CCCCC1 | inactive: 7.53%
COc1cc(C(=O)NCC2(N(C)C)CCCCC2)c([N+](=O)[O-])cc1OC | inactive: -2.97%
COc1ccc(Br)c(C(=O)NCC2(N3CCCCC3)CCCCC2)c1 | inactive: -1.2%
C=C(C)C#CC(O)(C(=O)OC1CCN(C)CC1)c1ccccc1 (stereo unspecified) | inactive: -2.93%
CN(C)c1cccc(C(=O)NCC2(N(C)C)CCCCC2)c1 | inactive: -1.21%
CC(C)Oc1ccc(C(=O)NCC2(N(C)C)CCCCC2)cc1 | inactive: 14.2%
O=C(OCCN1CCCC1)C(O)(c1ccccc1)c1ccccc1 | inactive: -5.23%
O=C(OC1CN2CCC1CC2)C(CO)(c1ccccc1)c1ccccc1 (stereo unspecified) | inactive: 14.1%
CC(C)N1C(=O)CC2(CCN(CCOC(=O)C(O)(c3ccccc3)c3ccccc3)CC2)C1=O | inactive: 11.2%
CCN(CC)CC(C)C(C)OC(=O)C(O)(c1ccccc1)c1ccccc1 (stereo unspecified) | inactive: 5.62%
COc1cc(SC)ccc1C(=O)NCC1(N(C)C)CCCCC1 | inactive: 1.33%
Cc1ccc(C(=O)NCC2(N3CCCCC3)CCCCC2)cc1 | inactive: 16%
O=C(NCC1(N2CCCCC2)CCCCC1)c1cc([N+](=O)[O-])ccc1Cl | inactive: 7.1%
CN1[C@@H]2CC[C@H]1CC(OC(=O)C(O)(c1ccccc1)c1ccccc1)C2 (stereo partly specified) | inactive: 1.89%
C=CCN1CCN(CCOC(=O)C(O)(c2ccccc2)c2ccccc2)CC1 | inactive: 10.9%
O=C(NCC1(N2CCCCC2)CCCCC1)c1cc(F)c(F)cc1Cl | inactive: 13.2%
Cc1cc(C(=O)NCC2(N3CCCCC3)CCCCC2)ccc1[N+](=O)[O-] | inactive: -10.8%
CCN1CCCC(OC(=O)C2(O)c3ccccc3C=Cc3ccccc32)C1 (stereo unspecified) | inactive: -4.08%
O=C(NCC1(N2CCCCC2)CCCCC1)c1cccc(Br)c1 | inactive: 17.8%
COc1ccc(C(=O)NCC2(N(C)C)CCCCC2)cc1 | inactive: 2.84%
Cc1ccccc1C(=O)NCC1(N2CCCCC2)CCCCC1 | inactive: 6.62%
CN(C)C1CCCC1OC(=O)C(O)(c1ccccc1)c1ccccc1 (stereo unspecified) | inactive: -11.7%
CN(C)c1ccc(C(=O)NCC2(N(C)C)CCCCC2)cc1 | inactive: -11.4%
